Results reported in US20200063116A1.

Target: recombinant human soluble thrombomodulin (rhs-TM), also called ART-123 (human) (UniProt P07204)
Test: enzyme capture assay: thrombin captured on a plate coated with rhs-TM/ART-123, washed, captured enzyme read with chromogenic substrate S-2366

What does the source list for “human alpha-thrombin (catalog number RP-43100, Thermo Fisher Scientific) (enzyme)”?
OD 405 at day 1: 0.569 OD 405; OD 405 at day 4: 1.67 OD 405
